Experimental findings from US11866459B2, “Cocrystal of progesterone and preparation method and use thereof” (NATIONAL INSTITUTES FOR FOOD AND DRUG CONTROL, priority 2020, dated 2024) are described below.

Data set [1] can be described thus: Determination of the dissolution rate (dissolution curves, stirring paddle method, HPLC). The conditions noted are these: for time at which the highest concentration was reached / highest value of concentration of progesterone on dissolution curve: 37±0.5° C.; for highest value of concentration of progesterone on dissolution curve: 50 to 100 rpm. Here is the method:
(§1) The present invention involves the following detection instruments: • Single-crystal X-ray diffractometer: Bruker P4, Mo target, \ω scan, 296.15K; • Fourier infrared spectrometer: PerkinElmer Frontier FT/IR Spectrometer, normal temperature, KBr pellets, wavelength of 4000 to 450 cm^−1; • Powder X-ray diffractometer: Rigaku D/max-25509 kw, CuKα radiation, graphite monochromator; • Differential scanning calorimetry analyzer: Mettler Toledo DSC 822e, heating rate of 10° C./min, nitrogen flow rate of 50 mL/min; • Dynamic vapour sorption analyzer: SMS DVS advantage, 25° C.; • Dissolution apparatus: Tianjin Tianda Tianfa Technology Co., Ltd. RC806D, stirring paddle method; • Drug permeation rate tester: Pion Inc μFlux™.
The two dissolution media are water and pH 1.2 hydrochloric acid solution, respectively. […] The content of progesterone at the wavelength of 241 nm was measured by the HPLC method, and the dissolution amount was calculated by the external standard method. Dissolution curves with time as the abscissa and the concentration of progesterone as the ordinate were respectively plotted, as shown in FIGS. 5 and 6.

The nature of data set [2]: Parallel artificial membrane permeability assay (PAMPA), permeation rate and effective permeability. Here is the method:
as §1
Since the pH of fasting intestinal fluid in a human body is 6.5 and the pH of blood is 7.4, in order to make the conditions under which the permeation rate was measured close to the environment of the human gastrointestinal tract, pH 6.8 phosphate buffer was selected as the medium in the experiment. 3 mg of progesterone monomers and cocrystals of progesterone equivalent to 3 mg of progesterone were accurately weighed, and respectively placed in a donor compartment that represents the gastrointestinal tract, and 20 ml of pH 6.8 phosphate buffer was accurately added. 20 ml of pH 7.4 ASB buffer was accurately added to a receptor compartment that represents blood. The two compartments were separated by a biomimetic membrane with an area of 1.54 cm^2. The biomimetic membrane was coated with 25 μl of simulated gastrointestinal liposomes for infiltration, which represents the cell membrane of the gastrointestinal tract. At the temperature of 37° C. and the stirring speed of 200 rpm, sampling was conducted for 4 h, with an interval of 60 s between each two sampling procedures. The drug concentration in the receptor compartment was measured with a fiber optic probe within the ultraviolet wavelength range of 250 to 350 nm. The artificial membrane permeation rate of the drug was calculated according to Formula 1 (J/Flux).
[formula] represents the rate of change of drug concentration in the receptor compartment per unit time (μg·mL^−1·min^−1); V is the volume of buffer in the receptor compartment (mL); A is the area of the biomimetic membrane (cm^2); and Ct is the initial concentration of the drug in the donor compartment (μg·mL^−1).
The level of drug permeability can be determined by comparing the permeability of the drug with that of metoprolol measured by the same method.
(The PAMPA barrier holds no transporters, so it reflects passive diffusion.)

Where [3] appears, read: pH 1.2 hydrochloric acid solution.

As to progesterone-isophthalic acid cocrystal, in data set [1] (setting [3]), the “solubility relative to the progesterone monomer” value amounted to 1.0 times, the “time at which the highest concentration was reached” value worked out at 40 min and the “highest value of concentration of progesterone on dissolution curve” value turned out to be 7.65 µg/mL. Besides, in data set [1] (water), the “solubility relative to the progesterone monomer” value was determined as 1.7 times, the “time at which the highest concentration was reached” value was 90 min and the “highest value of concentration of progesterone on dissolution curve” value came to 13.68 µg/mL. Also, in data set [2], the “effective permeability (Pe)” value stood at 938 ×10⁻⁶ cm/s and the “permeation rate (J, Flux)” value is reported as 0.36 μg·min^−1·cm^−2. In addition, the “permeability level compared with metoprolol” value in data set [2] (pH 6.8) is reported as “high permeability”. In addition, the “permeation rate relative to the progesterone monomer” value in data set [2] (pH 6.8 phosphate buffer) was 1.1 times.
